From patent publication US7816096B2, “Assay solution compositions and methods for GPCR arrays” (priority 2003, dated 2010)

Protein sequences, listed by entry. Tags and fused reporters are not part of them.
UniProt P35372, whole entry, species assumed: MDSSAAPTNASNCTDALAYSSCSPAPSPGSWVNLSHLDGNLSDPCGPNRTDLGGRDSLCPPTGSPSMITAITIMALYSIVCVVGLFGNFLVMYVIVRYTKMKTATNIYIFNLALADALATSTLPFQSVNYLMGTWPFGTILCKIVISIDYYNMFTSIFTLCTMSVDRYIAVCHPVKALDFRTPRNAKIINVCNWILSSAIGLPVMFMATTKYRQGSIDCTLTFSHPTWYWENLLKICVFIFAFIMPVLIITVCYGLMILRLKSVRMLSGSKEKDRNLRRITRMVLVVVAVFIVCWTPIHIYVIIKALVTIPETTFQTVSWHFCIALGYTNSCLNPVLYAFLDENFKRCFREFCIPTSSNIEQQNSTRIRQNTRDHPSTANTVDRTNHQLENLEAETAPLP

Molecular target: mu opioid receptor (Homo sapiens, UniProt P35372)
Conditions: 100 nM dynorphin A in agonist cocktail; 2 nM 35S-GTPγS

dynorphin A was tested, and the “agonist-induced binding of 35S-GTPγS to mu opioid receptor microspots” value was “increased signals”.
